Assay results: publication PMC5080790
Each block holds one binder with its values, some of them ahead of it.

Target: T1, Mutant Atro box peptide (two leucines to alanines)
T1 chain: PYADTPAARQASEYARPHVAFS
Test: MARCoNI array
Conditions: chain shown with the change; cell lysates from HEK293 cells; n = 3; parent: est. 270; read off a plot

response: 6 AU
B1: m1 (binder); m4 (target) R276Q (NR2E1 LBD); L8A; L11A (Atro box peptide) (protein)
chain: MSKPAGSTSRILDIPCKVCGDRSSGKHYGVYACDGCSGFFKRSIRRNRTYVCKSGNQGGCPVDKTHRNQCRACRLKKCLEVNMNKDAVQHERGPRTSTIRKQVALYFRGHKEENGAAAHFPSAALPAPAFFTAVTQLEPHGLELAAVSTTPERQTLVSLAQPTPKYPHEVNGTPMYLYEVATESVCESAARLLFMSIKWAKSVPAFSTLSLQDQLMLLEDAWRELFVLGIAQWAIPVDANTLLAVSGMNGDNTDSQKLNKIISEIQALQEVVARFQQLRLDATEFACLKCIVTFKAVPTHSGSELRSFRNAAAIAALQDEAQLTLNSYIHTRYPTQPCRFGKLLLLLPALRSISPSTIEEVFFKKTIGNVPITRLLSDMYKSSDI

response: 4 AU
B2: m1 (binder); m4 (target) R274G (NR2E1 LBD); L8A; L11A (Atro box peptide) (protein)
chain: VSTTPERQTLVSLAQPTPKYPHEVNGTPMYLYEVATESVCESAARLLFMSIKWAKSVPAFSTLSLQDQLMLLEDAWRELFVLGIAQWAIPVDANTLLAVSGMNGDNTDSQKLNKIISEIQALQEVVAGFRQLRLDATEFACLKCIVTFKAVPTHSGSELRSFRNAAAIAALQDEAQLTLNSYIHTRYPTQPCRFGKLLLLLPALRSISPSTIEEVFFKKTIGNVPITRLLSDMYKSSDI
